Measured values from patent US12384821B2, “Antimicrobial peptides and compositions, methods, articles and kits relating thereto” (George Mason University, priority 2020, dated 2025).
Values after ≈ are worked out from the molar mass of the structure shown.

What was measured:
[1] = Circular dichroism spectroscopy, percent alpha-helicity; type: physicochemical; details: 100 μg/mL peptide
Description: Circular dichroism (CD) analysis of the peptides was performed using a Jasco J-1500 spectropolarimeter. 100 μg/mL of peptide was used in each experiment. Samples were allowed to equilibrate for 5 min prior to data collection at 25° C. in a 1 mm path length cuvette. Spectra were collected from 190 to 260 nm with at 20 nm/min, a data integration time of 4 seconds and a 1 nm bandwidth. Data shown represents the average of four spectra. The peptides were analyzed in 10 mM sodium phosphate buffer (6.12 mM sodium monohydrogen phosphate heptahydrate; 3.92 mM monosodium phosphate anhydrous; pH 7.4), 50% (v/v) trifluoroethanol (TFE) in phosphate buffer, or 60 mM sodium dodecyl sulfate (SDS) in phosphate buffer. Percent contribution to secondary structure was measured using methods described in Raussens, V. et al. (Analytical Biochemistry, 319(1):114-21 (2003)).
The secondary structures of many CAMPs are disordered in the absence of anionic membranes or micelles, but adopt more defined secondary structures in their presence. To detect and measure any changes that the DRGN peptides may undergo based on environment, we studied their structural properties in 10 mM phosphate buffer as a negative control, 60 mM SDS in 10 mM phosphate buffer and 50% 2,2,2-Trifluoroethanol (TFE) in 10 mM phosphate buffer. Phosphate buffer without SDS or TFE provided an environment for studying the conformational properties of the peptides structure in the absence a micelle or membrane. Sodium dodecyl sulfate is an anionic surfactant that can form micelles in aqueous buffers mimicking bacterial membranes and simulating the effects an anionic membrane can have on the conformations of antimicrobial peptides. Addition of trifluoroethanol to aqueous buffer promotes increased structure, usually helicity, in peptides with suitable sequences.

[2] = test system: carbapenem-resistant K. pneumoniae strain (ATCC BAA-1705); type: cell-based, Klebsiella pneumoniae; details: CLSI protocol in CA-MHB
Description: Klebsiella pneumoniae ATCC BAA-1705 was purchased from the American Type Culture Collection (Manassas, VA) and grown in Cation-Adjusted Mueller Hinton Broth. Bacteria were aliquoted and frozen at −80° C. with 20% glycerol and enumerated via serial dilution and plating prior to experimentation.
The minimum inhibitory concentration (MIC) of the peptides was determined according to Clinical & Laboratory Standards Institute (CLSJ) guidelines. Bacteria were grown overnight on Cation-adjusted Mueller Hinton Agar (BD 211438, CAMHA) at 37° C. Assays were performed in Cation-adjusted Mueller Hinton Broth (BD 212322, CAMHB) in polypropylene 96 well plates (Corning 3879). Each experiment was performed with three replicates at least three times.

## CC[C@H](C)[C@H](NC(=O)[C@@H](NC(=O)[C@H](CCCCN)NC(=O)[C@@H]1CCCN1C(=O)[C@H](CCCCN)NC(=O)[C@H](CCCCN)NC(=O)[C@H](Cc1ccccc1)NC(=O)[C@H](Cc1ccccc1)NC(=O)[C@H](CCCCN)NC(=O)[C@H](CCCCN)NC(=O)[C@H](C)NC(=O)[C@H](CCCNC(=N)N)NC(=O)[C@H](CCCCN)NC(=O)[C@H](CCCCN)NC(=O)[C@@H](NC(=O)[C@H](CO)NC(=O)[C@H](CC(N)=O)NC(=O)[C@H](CCCCN)NC(=O)[C@H](CC(C)C)NC(=O)[C@H](CCCCN)NC(=O)[C@H](CCCCN)NC(=O)[C@H](Cc1ccccc1)NC(=O)[C@H](Cc1ccccc1)NC(=O)[C@H](CCCCN)NC(=O)[C@H](CCCCN)NC(=O)[C@H](Cc1ccccc1)NC(=O)[C@H](CCCNC(=N)N)NC(=O)[C@@H](N)CCCCN)C(C)C)C(C)C)C(=O)NCC(=O)N[C@H](C(=O)N[C@H](C(=O)N[C@@H](Cc1ccccc1)C(=O)N1CCC[C@H]1C(=O)N[C@@H](Cc1ccccc1)C(=O)O)[C@@H](C)O)C(C)C [NA-CATH, reference compound]
[1]; 10 mM phosphate buffer
  Percent alpha-helicity, 10 mM phosphate buffer: 3.4%
[1]; 60 mM SDS in 10 mM phosphate buffer
  Percent alpha-helicity, SDS: 55.6%
[1]; 50% TFE in 10 mM phosphate buffer
  Percent alpha-helicity, TFE: 63.5%
[2]
  MIC: 8 µg/mL (≈ 1.92 µM)
